Literature values in US7229966B2, “Compositions and methods for enhanced mucosal delivery of Y2 receptor-binding peptides and methods for treating and preventing obesity” (Nastech Pharmaceutical Company Inc., priority 2002, dated 2007).

Conditions: compared with 86% in the original material; cited from earlier work

albumin: albumin processed into micro-particles for aerosol delivery (literature)
monomer retained after processing: 50–75%
